The nature of the series: Thermo stability test of esters and/or salts of hexahydro-β-acid (2% premix, 100° C., HPLC). The following applies: premix with corncob powder, initial content 2.0%, oven 100° C. Type of series: physicochemical. As to the method:
Samples (the premixes) were placed in crucibles, and then placed in oven at 100° C. for different durations. Then 1.0 g of each of the samples (three duplicate samples from each sample) and 50 ml of ethanol were added into a conical flask, followed by the addition of 100 μL of concentrated hydrochloric acid. The mixture was then subjected to sonication for 5 minutes, and then filtrated. The filtrate was transferred into a 50 ml volumetric flask, topped up to the final volume with ethanol, and then filtered with a 0.45 μm microporous membrane and subjected to HPLC analysis.

In the case of butyrate ester of hexahydro-β-acid, the “Content when being heated at 100° C. for 20 h” value (20 h) is recorded as 1.74%. Besides, for the setting “44 h”, the “Content when being heated at 100° C. for 44 h” value worked out at 0.69%.
